Data taken from article PMC11191600 (ACS chemical neuroscience, 2024).

Chains of the proteins cited; added tags and fusions are not shown. Lines headed by an entry give the natural chain unless they say otherwise; changes in a name come on top. Residues count along the entry.
UniProt P21728, whole entry: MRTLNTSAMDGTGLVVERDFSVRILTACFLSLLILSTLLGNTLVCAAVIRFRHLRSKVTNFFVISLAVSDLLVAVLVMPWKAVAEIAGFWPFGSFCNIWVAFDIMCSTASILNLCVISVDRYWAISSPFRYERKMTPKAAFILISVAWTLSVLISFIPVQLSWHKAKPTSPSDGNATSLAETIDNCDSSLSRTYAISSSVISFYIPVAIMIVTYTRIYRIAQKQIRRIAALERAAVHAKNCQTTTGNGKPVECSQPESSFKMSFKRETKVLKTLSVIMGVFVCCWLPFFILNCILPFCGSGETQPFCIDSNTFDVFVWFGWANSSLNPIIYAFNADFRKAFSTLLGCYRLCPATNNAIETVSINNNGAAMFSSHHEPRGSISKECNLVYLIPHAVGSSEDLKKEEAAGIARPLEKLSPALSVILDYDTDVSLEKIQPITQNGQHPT
UniProt P21917, whole entry: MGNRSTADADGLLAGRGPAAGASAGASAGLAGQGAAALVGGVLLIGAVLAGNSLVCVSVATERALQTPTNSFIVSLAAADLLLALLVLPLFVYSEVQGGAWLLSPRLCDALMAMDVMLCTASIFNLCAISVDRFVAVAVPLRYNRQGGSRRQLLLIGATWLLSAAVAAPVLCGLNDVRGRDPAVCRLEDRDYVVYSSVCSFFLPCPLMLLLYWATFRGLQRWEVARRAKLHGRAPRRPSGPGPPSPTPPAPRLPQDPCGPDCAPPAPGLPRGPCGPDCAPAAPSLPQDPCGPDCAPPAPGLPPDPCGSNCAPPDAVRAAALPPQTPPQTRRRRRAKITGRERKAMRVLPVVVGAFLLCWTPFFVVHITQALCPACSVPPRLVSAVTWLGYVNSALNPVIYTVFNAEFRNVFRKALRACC
UniProt P35462, whole entry: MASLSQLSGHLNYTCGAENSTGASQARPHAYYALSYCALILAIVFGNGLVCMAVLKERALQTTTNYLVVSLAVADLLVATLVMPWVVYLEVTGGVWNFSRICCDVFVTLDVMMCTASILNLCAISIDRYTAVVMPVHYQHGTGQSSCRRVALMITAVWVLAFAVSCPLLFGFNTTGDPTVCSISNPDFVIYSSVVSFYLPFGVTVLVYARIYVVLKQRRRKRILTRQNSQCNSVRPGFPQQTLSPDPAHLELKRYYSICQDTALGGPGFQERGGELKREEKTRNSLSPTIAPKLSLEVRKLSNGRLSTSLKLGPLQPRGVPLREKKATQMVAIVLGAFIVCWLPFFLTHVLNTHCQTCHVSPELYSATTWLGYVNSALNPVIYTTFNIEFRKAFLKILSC
UniProt P14416, whole entry: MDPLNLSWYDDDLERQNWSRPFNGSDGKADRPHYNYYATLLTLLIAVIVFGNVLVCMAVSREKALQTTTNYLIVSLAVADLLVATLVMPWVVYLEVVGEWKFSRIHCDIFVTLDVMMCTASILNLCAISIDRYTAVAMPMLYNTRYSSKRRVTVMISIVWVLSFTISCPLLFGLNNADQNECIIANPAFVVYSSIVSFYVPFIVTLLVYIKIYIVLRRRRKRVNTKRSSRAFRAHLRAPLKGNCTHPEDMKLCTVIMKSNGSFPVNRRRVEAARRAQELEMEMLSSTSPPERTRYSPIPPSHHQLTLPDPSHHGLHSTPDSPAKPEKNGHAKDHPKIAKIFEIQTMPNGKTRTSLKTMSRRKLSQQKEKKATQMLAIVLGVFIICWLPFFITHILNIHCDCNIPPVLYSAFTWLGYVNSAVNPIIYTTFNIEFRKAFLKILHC
UniProt P14416, 1-414 isoform 2: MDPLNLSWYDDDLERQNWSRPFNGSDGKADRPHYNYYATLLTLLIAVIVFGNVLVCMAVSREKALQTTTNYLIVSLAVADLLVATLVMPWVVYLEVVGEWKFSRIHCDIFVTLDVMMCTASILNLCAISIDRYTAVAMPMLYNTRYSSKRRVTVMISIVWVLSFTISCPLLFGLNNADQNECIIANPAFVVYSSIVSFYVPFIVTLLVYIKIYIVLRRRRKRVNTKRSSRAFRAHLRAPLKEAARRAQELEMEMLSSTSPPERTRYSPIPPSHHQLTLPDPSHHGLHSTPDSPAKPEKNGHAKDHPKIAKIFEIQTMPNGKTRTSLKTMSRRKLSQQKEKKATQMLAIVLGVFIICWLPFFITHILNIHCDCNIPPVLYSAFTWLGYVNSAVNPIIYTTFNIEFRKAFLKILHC

What was measured:
[1] = target: human dopamine D1 receptor (Homo sapiens, UniProt P21728); test: Human dopamine D1 receptor radioligand binding assay (Eurofins); conditions: [3H]SCH-23390 binding, Eurofins Discovery
[2] = target: human dopamine D4.4 receptor (Homo sapiens, UniProt P21917); test: Human dopamine D4.4 receptor radioligand binding assay (Eurofins); conditions: Eurofins Discovery; for % Inhibition at 10 μM D4.4: [3H]Spiperone binding; for IC50: read-out: D4.4 IC50; for Ki: read-out: D4.4 Ki
[3] = target: human dopamine D3 receptor (Homo sapiens, UniProt P35462); test: Human dopamine D3 receptor radioligand binding assay (Eurofins); conditions: [3H]Spiperone binding, Eurofins Discovery
[4] = target: human dopamine D2S receptor (Homo sapiens, UniProt P14416); test: Human dopamine D2S receptor radioligand binding assay (Eurofins); conditions: [3H]Spiperone binding, Eurofins Discovery
[5] = target: Human recombinant dopamine D2L receptor (Homo sapiens, UniProt P14416); test: Human dopamine D2L receptor radioligand binding assay (Eurofins); conditions: [3H]Spiperone binding, Eurofins Discovery
[6] = Kinetic solubility (shake flask, McIlvaine buffer); conditions: 18 hours room temperature; for Solubility pH = 2.2: McIlvaine buffer pH 2.2, 100 µM; for Solubility pH = 6.8: McIlvaine buffer pH 6.8, 100 µM

% Inhibition at 10 μM D1 [1] [%]	% Inhibition at 10 μM D4.4 [2] [%]	IC50 [2] [nM]	Ki [2] [nM]	% Inhibition at 10 μM D3 [3] [%]	% Inhibition at 10 μM D2S [4] [%]	% Inhibition at 10 μM D2L [5] [%]	Solubility pH = 2.2 [6] [µM]	Solubility pH = 6.8 [6] [µM]	Structure (SMILES)
10	95	790	220	23	17	35			O=C(c1cccc(Cl)c1)N1CC2(CCN(Cc3c[nH]c4cc(F)ccc34)CC2)C1
21	93	260	71	35	22	26	82.7	79.6	O=C(c1ccc2c(c1)CCCC2)N1CC2(CCN(Cc3c[nH]c4cc(F)ccc34)CC2)C1
24	93	77	21	34	11	26			O=C(c1ccc(Cl)c(Cl)c1)N1CC2(CCN(Cc3c[nH]c4cc(F)ccc34)CC2)C1
32	95	28	7.6	36	21	34	85.0	79.7	O=C(c1ccc2ccccc2c1)N1CC2(CCN(Cc3c[nH]c4cc(F)ccc34)CC2)C1
